Results reported in patent US8207199B2, “Azole compound” (dated 2012).

Amino acid sequences for entries named in this document (tags omitted).
UniProt O00519, whole entry, looked up: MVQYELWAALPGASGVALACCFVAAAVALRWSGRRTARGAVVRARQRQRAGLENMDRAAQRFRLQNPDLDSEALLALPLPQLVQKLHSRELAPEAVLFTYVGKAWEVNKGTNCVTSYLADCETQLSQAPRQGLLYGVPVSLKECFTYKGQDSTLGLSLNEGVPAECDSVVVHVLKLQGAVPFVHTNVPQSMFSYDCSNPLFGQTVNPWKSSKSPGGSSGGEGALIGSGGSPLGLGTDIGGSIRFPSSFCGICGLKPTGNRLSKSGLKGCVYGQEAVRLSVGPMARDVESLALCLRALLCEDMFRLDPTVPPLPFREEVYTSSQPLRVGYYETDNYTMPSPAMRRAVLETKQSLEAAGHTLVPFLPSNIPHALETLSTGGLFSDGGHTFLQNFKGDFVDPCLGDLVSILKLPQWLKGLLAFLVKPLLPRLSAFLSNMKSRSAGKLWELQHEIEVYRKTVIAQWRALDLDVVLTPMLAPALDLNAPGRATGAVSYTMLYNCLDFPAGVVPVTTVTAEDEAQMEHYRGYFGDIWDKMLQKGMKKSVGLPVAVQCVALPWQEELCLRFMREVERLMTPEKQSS

Tests used:
[1] = target: FAAH (Homo sapiens, UniProt O00519); assay: FAAH activity inhibition in human bladder epithelial cancer-derived cell line 5637 cells (Test Example 1); details: radiolabeled anandamide substrate, 37° C. 30 minutes, URB597 10 μM = 0%, DMSO = 100%
[2] = test system: L5/L6 spinal nerve-ligated rat; assay: Antiallodynia effect in L5/L6 spinal nerve-ligated rat (neuropathic pain model), von Frey hair test (Test Example 3); details: 3 mg/kg orally, 60 minutes before response threshold measurement; operated paw 0%, non-operated paw 100% in solvent group

Structure (SMILES)	IC50 [1]	Recovery rate (%) [2]
Cc1ccc(OC(=O)N2CCC(n3cnc(-c4ccccc4)c3)CC2)cn1	1.4 nM	–
O=C(Oc1cccnc1)N1CCC(n2nnc(-c3ccccc3)n2)CC1	2.2 nM	–
O=C(Oc1cccnc1)N1CCC(c2nc(-c3ccccc3)c[nH]2)CC1	0.85 nM	–
Cc1ncccc1OC(=O)N1CCC(c2ncc(-c3cccc(F)c3)o2)CC1.Cl	–	94%
Cc1ccc(OC(=O)N2CCC(c3nc(-c4ccc(Cl)cc4)co3)CC2)cn1	0.16 nM	–
Cc1ccc(OC(=O)N2CCC(c3ncc(-c4ccc(F)cc4)o3)CC2)cn1	0.56 nM	97%
Cc1ncccc1OC(=O)N1CCC(c2nc(-c3ccccc3F)n[nH]2)CC1	0.38 nM	119%
Cc1ccc(OC(=O)N2CCC(c3nc(-c4ccc(F)cc4)co3)CC2)cn1	–	83%
O=C(Oc1cccnc1)N1CCC(c2nc(-c3ccc(F)cc3)no2)CC1	0.077 nM	81%
O=C(Oc1cccnc1)N1CCC(c2nc(-c3ccccc3)cs2)CC1	0.3 nM	–
Cc1ncccc1OC(=O)N1CCC(c2ncc(-c3ccc(F)cc3)o2)CC1	0.98 nM	86%
O=C(Oc1cccnc1)N1CCC(c2nnc(-c3ccc(F)c(F)c3)o2)CC1	0.43 nM	74%
Cc1ccc(OC(=O)N2CCC(c3nc(-c4ccc(F)cc4)n[nH]3)CC2)cn1	1.8 nM	98%
Cc1ccc(OC(=O)N2CCC(n3cnc(-c4ccc(F)cc4)n3)CC2)cn1	0.067 nM	–
O=C(Oc1cccnc1)N1CCC(c2nnc(-c3ccc(C(F)(F)F)cc3)o2)CC1	0.2 nM	–
Cc1ccc(OC(=O)N2CCC(n3ccc(-c4ccccc4)n3)CC2)cn1	0.11 nM	90%
O=C(Oc1cccnc1)N1CCC(n2ncc(-c3ccc(F)cc3)n2)CC1	0.047 nM	–
O=C(Oc1cccnc1)N1CCC(c2nc(-c3ccccc3)n[nH]2)CC1	0.35 nM	97%
O=C(Oc1cccnc1)N1CCC(n2cc(-c3ccc(F)cc3)cn2)CC1	0.15 nM	–
O=C(Oc1cccnc1)N1CCC(n2cc(-c3cccc(Cl)c3)nn2)CC1	0.7 nM	–
Cc1ccc(OC(=O)N2CCC(c3noc(-c4ccc(F)c(F)c4)n3)CC2)c(C)n1	2.6 nM	117%
O=C(Oc1cccnc1)N1CCC(c2cc(-c3ccccc3)n[nH]2)CC1	0.11 nM	71%
